# Assay results as given in patent publication US20160347802A1.
# Molecular target: biotinylated recombinant human DCC (human) (UniProt P43146)
# Assay: AVEXIS, prey on bait DCC; dark = Binding
substance,measurement,value
"human Netrin1, recombinant AVEXIS protein (biotinylated when immobilised) (from UniProt O95631 25-604) (ligand)",A486nm,0.299
